Assay results from patent US10716753B2, “Compositions for pulmonary delivery of long-acting muscarinic antagonists or long-acting B2 adrenergic receptor agonists and associated methods and systems” (priority 2009, dated 2020).

Test: Aerosol performance by Next Generation Impactor, USP <601> (fine particle fraction, MMAD)
Format: physicochemical
Conditions: 24 μg per actuation

Molecule `C[N+]1(C)CCC(OC(=O)C(O)(c2ccccc2)C2CCCC2)C1.[Br-]` (stereo not drawn) [glycopyrrolate, Pyrrolidinium, 3-((cyclopentylhydroxyphenylacetyl)oxy)-1,1-dimethyl-, bromide] has an MMAD (6 weeks at 50° C.) of 3.94 μm, an FPF (6 weeks at 50° C. ambient humidity) of 58.4% and an FPF (8 weeks at 40° C. and 75% relative humidity) of 56.8%. The MMAD (12 weeks at 40° C.) was 3.84 μm, the FPF (12 weeks at 40° C. and 75% relative humidity) was 57.6% and the MMAD (initial) was 3.54 μm.
